The list shows a part of the results, in another mix than the full data. Results filed as inconclusive are left out. Active and inactive are the calls of the source. The call rests on the fitted dose curve; in most records, active means well fitted curve in the direction sought with a large enough effect in the signal ratio (not every such curve was filed as active); inconclusive means small, poorly fitted or top-dose-only effect, or a change in a side signal; inactive means no such curve, though single readings can be large or run the other way; the % refers to the signal ratio.
target: Inositol monophosphatase 1 (Rattus norvegicus) (UniProt P97697); test: qHTS Assay for Identifying the Cell-Membrane Permeable IMPase Inhibitors; conditions: CHO-M1 cells, HTRF TR-FRET ratio; at 46.1 µM (top of the series) unless noted;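 further: higher means more IMPase inhibition seen as more IP1 and lower FRET ratio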
Text: NCGC IMPase Assay Overview
Lithium has been widely used for the treatment of bipolar disorder. But lithium has a narrow therapeutic index and it can cause side effects such as thirst, weight gain, tremor, polyuria and memory problems. Although the mechanism for lithium action in treatment of bipolar disorder is still not fully understood, inhibition of inositol monophosphatase (IMPase) and the subsequent depletion of the inositol pool in living cells have been implicated as the primary therapeutic benefit of lithium therapy. Therefore, a selective IMPase inhibitor with reduced side effects might be a good drug candidate to replace lithium for the treatment of bipolar disorder. Several IMPase inhibitors have been discovered previously. However, they are not suitable for therapeutic use because of their poor cell membrane penetrability or oral bioavailability; the development of new cell-permeable IMPase inhibitors is needed.
IMPase catalyzes the hydrolysis of inositol-1-phosphate (IP1) to release free inositol. Binding of an agonist to a Gq coupled GPCR results in the activation of PLC, which hydrolyzes the PIP2 to form inositol-1,4,5-trisphosphate (IP3) and diacyl glycerol (DAG). While DAG activates protein kinase C (PKC), IP3 triggers the elevation of intracellular free Ca2+. The IP3 is very rapidly inactivated by hydrolysis to IP2, IP1 and then inositol by a series of enzymes including IMPase. Free inositols are used for synthesis of PI and thus start another inositol cycle.
To identify new cell-permeable IMPase inhibitors, we developed a cell-based IMPase assay in which the cytosolic IP1 is measured by a time-resolved fluorescence resonance energy transfer (TR-FRET) assay. In this assay, an IP1 specific antibody is used to detect the labeled IP1 tracer. When the cell lysate contains the elevated IP1 due to the inhibition of IMPase, the TR-FRET between the labeled antibody and IP1 tracer is disrupted resulting in a reduction in the total signal. Since the TR-FRET is used, this cell-based assay is a homogenous assay without cell wash and medium change that is suitable for assay miniaturization and HTS.
NCGC IMPase Assay Protocol Summary
A Chinese hamster ovary (CHO) cell line stably expressing the M1 receptor (CHO-M1) was obtained from ATCC and maintained in F-12 Kaighn's media (Invitrogen, Carlsbad, CA, 21127) supplemented with 10 % FBS, 100 units/ml penicillin, 100 ug/ml streptomycin and 250 ug/ml geneticin at 37C, 5% CO2 in a humidified atmosphere. Before the assay, aliquots of cells were frozen and stored at -135C. The assay was performed in 1536-well format. Data are reported for both the ratio of the two emission wavelengths, and also for the component 'donor' channel, Em2=620. […] AC50 values were determined from concentration-response data modeled with the standard Hill equation.
IMPase 1536-well assay protocol:
(1) Plate 4 ul/well (2000 cells) of cell suspension from frozen CHO-M1 Cells in white, tissue culture treated 1536-well plates that are cultured at 37C, 5 % CO2 for 16 to 30 hours.
(2) Add 23 nl/well of compound in DMSO solution. The final titration for each compound was between 0.6 nM and 46 uM.
(3) Add 1 ul of carbachol (50 uM in stimulation buffer containing10mM HEPES, 1mM CaCl2, 0.5 mM MgCl2, 4.2 mM KCl, 146 mM NaCl, 5.5 mM glucose, 50mM LiCl, pH 7.4.
(4) Incubation at 37C, 5 % CO2 for 30 min.
(5) Add 1 ul/well of d2-conjugated IP1 (d2-IP1) and 1 ul/well of Eu+ cryptate conjugated anti-IP1 antibody (Eu+-Ab) prepared in the cell lysis buffer, both from the IP-One kit (Cisbio, MA).
(6) Incubate at room temperature for 10 minutes.
(7) Detect the assay plate (Ex = 320, Em1 =665 and Em2 620) in a ViewLux plate reader.
inositol monophosphatase, IMPase, IMPase inhibitor, lithium, bipolar disorder, IP-One, HTRF, qHTS, NIH roadmap, NCGC
Note: In the gene ID and protein GI references for this assay, rat IMPase is referenced instead of hampster as hamster accession numbers were not available.

Protein sequences, listed by entry. Tags and fused reporters are not part of them. Lines headed by an entry give the natural chain unless they say otherwise; changes in a name come on top.
UniProt P97697: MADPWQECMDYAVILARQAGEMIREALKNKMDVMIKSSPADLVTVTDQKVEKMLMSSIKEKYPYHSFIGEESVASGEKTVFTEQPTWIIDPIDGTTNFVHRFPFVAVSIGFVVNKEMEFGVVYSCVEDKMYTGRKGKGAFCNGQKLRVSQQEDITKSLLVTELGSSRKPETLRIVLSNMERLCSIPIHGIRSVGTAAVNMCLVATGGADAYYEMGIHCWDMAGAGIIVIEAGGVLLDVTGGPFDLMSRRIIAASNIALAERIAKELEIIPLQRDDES

Compound | inhibition (IP1 accumulation)
O=P1(Nc2ccccn2)COc2ccccc2OC1 | inactive: 20%
CN(CCCl)Cc1cc(Cl)c(NC2=NCCN2)c(Cl)c1 | inactive: 6.19%
Clc1n[nH]nc1-c1nn[nH][15n]1 | inactive: -6.92%
O=P1(Nc2ncccn2)COc2ccccc2OC1 | inactive: -11.4%
O=P1(Nc2ccc(Br)cn2)COc2ccccc2OC1 | inactive: -1.27%
Cc1ccc(OCC(=O)OC2CN3CCC2CC3)cc1 (stereo not drawn) | inactive: 0.931% [at 1.84 µM]
Cc1nn(-c2ccccc2)c2c1P(=O)(N1CCOCC1)N(C)C(c1ccccc1)=N2 (stereo not drawn) | inactive: -3.95%
NC(=O)Nc1ccc([As](=O)(O)O)cc1 | inactive: 3.69% [at 20.6 µM]
CCOP1(=S)c2c(C)nn(CCC#N)c2N=C(c2ccc(F)cc2)N1C (stereo not drawn) | inactive: 4.75%
O=[N+]([O-])c1ccc2c(c1)nnn2O | inactive: -4.85%
O=P(Nc1nccs1)(c1ccccc1)c1nc2ccccc2s1 (stereo not drawn) | inactive: 16.3%
CCOP1(=S)c2c(C)nn(CCC#N)c2N=C(c2ccccc2F)N1C (stereo not drawn) | inactive: 0.846%
Cc1ccc(NCCc2c([N+](=O)[O-])cc([N+](=O)[O-])cc2[N+](=O)[O-])cc1 | inactive: 17.8%
CN(C(=O)Cc1ccc(Cl)c(Cl)c1)[C@@H]1CC[C@@]2(CCCO2)C[C@H]1N1CCCC1 | inactive: 3.94%
Cc1cccc(OCC(=O)OC2CN3CCC2CC3)c1 (stereo not drawn) | inactive: 9.31%
Cc1c2c(nc3ccccc13)SC(C(Cl)Cl)C2 (stereo not drawn) | inactive: -12.9%
O=C(OC1CN2CCC1CC2)C12CC3CC(CC(C3)C1)C2 (stereo not drawn) | inactive: 20.1%
CCN(CC)C(=S)SC(NC=O)C(Cl)(Cl)Cl (stereo not drawn) | inactive: -3.89%
Cc1ccc2nc3c(c(C)c2c1)CC(C(Cl)Cl)S3 (stereo not drawn) | inactive: -9.81%
Cc1cc(SC(NC(=O)c2ccccc2)C(Cl)(Cl)Cl)nc(C(C)C)n1 (stereo not drawn) | inactive: -5.71%
CCC(C)N(CC(C)C)C(=S)SC(NC(C)=O)C(Cl)(Cl)Cl (stereo not drawn) | inactive: -6.23%
COP1(=S)c2c(C)nn(CCC#N)c2N=C(c2ccc(F)cc2)N1C (stereo not drawn) | inactive: -1.12%

Compound | inhibition (IP1 accumulation)
O=C(COc1ccccc1)OC1CN2CCC1CC2 (stereo not drawn) | inactive: 16.4%
CC1CCN(C(=O)Oc2c(Cl)cc(Cl)c3cccnc23)CC1 | inactive: 6.29%
CCc1nc2c(n1)c1c(non1O)c1c2no[n+]1[O-] | inactive: 14.5%
CC(=O)N1C2C3N(C(C)=O)C1C1N(C(C)=O)C(C(N1C(C)=O)N3C(C)=O)N2C(C)=O | inactive: 2.43%
O=[N+]([O-])c1cccc2n[nH]nc12 | inactive: -1.23%
CN(C(=O)Cc1ccccc1)[C@@H]1CC[C@@]2(CCCO2)C[C@H]1N1CCCC1 | inactive: 0.521%
CCN(N=Nc1nonc1N)c1nonc1N | inactive: 2.5%
CCOP(=O)(Nc1ccccc1)OCC | inactive: 0.428%
Cc1cc(SC(NC(=O)c2ccc(F)cc2)C(Cl)(Cl)Cl)ncn1 (stereo not drawn) | inactive: 2.62%
Cc1c2non([O-])c-2c(C)[n+](=O)[n+]1[O-] | inactive: 12.8%
Oc1ccccc1CNc1ccccn1 | inactive: 7.42%
CC(C)CC(=O)NC(Sc1ccc(Cl)cc1)C(Cl)(Cl)Cl (stereo not drawn) | inactive: 5.71%
CN1CCCC(OC(=O)C(c2ccccc2)c2ccccc2)C1 (stereo not drawn) | inactive: 13.5%
O=P1(Nc2nc3ccc(Cl)cc3s2)COc2ccccc2O1 (stereo not drawn) | inactive: 4.89%
CCC(=O)N1C2C3N(C(=O)CC)C1C1N(C(=O)CC)C(C(N1C(=O)CC)N3C(=O)CC)N2C(=O)CC | inactive: -2.05%
COC(=O)c1cc2c(s1)N=C(c1ccccc1)N(C)P2(=O)N1CCOCC1 (stereo not drawn) | inactive: 3.88%
CCOC(=O)NC(Sc1ccccc1)C(Cl)(Cl)Cl (stereo not drawn) | inactive: 5.18%
O=C(OC1CN2CCC1CC2)c1cccc(Cl)c1 (stereo not drawn) | inactive: 15%
O=P(Nc1nccs1)(c1ccccc1)c1ccccc1 | inactive: -2.34%
CC(C)C(=O)NC(Sc1ccccc1)C(Cl)(Cl)Cl (stereo not drawn) | inactive: -4.67%
c1nnnn1CCn1cnnn1 | inactive: -3.64%

Reference: PubChem BioAssay AID901 (National Center for Advancing Translational Sciences (NCATS), 2007)
